Test results: patent US20220024904A1, “REAGENT FOR BIOCONJUGATION VIA IRREVERSIBLE REBRIDGING OF DISULFIDE LINKAGES” (Research Foundation of the City University of New York, priority 2020, published 2022)

System: HER2-positive BT474 cells
Test: Flow cytometry cell binding, HER2-positive cells
Assay type: cell-based, human
Settings: for cell populations detected after incubation: BT474 cells, identical conditions; for binding to cells: flow cytometry, HER2-positive BT474 cells
Method: To this end, flow cytometry experiments were performed using two human breast cancer cell lines: HER2-positive BT474 cells and HER2-negative MDA-MB-235 cells. […] Just as important, however, are the differences between the behavior of the two FITC-modified Fabs and HER2-positive BT474 cells.

FabHER2-DiPODS-FITC
cell populations detected after incubation: only a single population of fluorophore-positive cells | immunoreactivity (compared with FabHER2-Lys-FITC): higher | binding to cells: binding was observed

FabHER2-Lys-FITC [reference compound]
cell populations detected after incubation: both fluorophore-positive and fluorophore-negative cells | binding to cells: binding was observed
